Structures can show the parent of a compound that is named as a salt. Each block holds one compound with its values, some of them ahead of it.
Assays:
[1] = test system: AN3CA; assay: Cell proliferation inhibition, CellTiter-Glo luminescent cell viability assay, FGFR2 background cells; conditions: read-out: IC50 value, inhibition of proliferation, 72-96 hours incubation
Description: (§1) This experiment investigates the compound's ability to inhibit cell proliferation by assessing its effect on in vitro cell viability in seven tumor cell lines (KATO III, NCI-H716, SNU-16, AN3CA, MFE-296, SUM52PE, MFM223).
(§2) The cell lines were cultured in an incubator at 37 °C and 5% CO2 under standard conditions, passaged periodically, and cells in the logarithmic growth phase were used for plating. The test compounds were prepared as 10 mM solutions using DMSO.
(§3) Preparation of the compound storage plate (tube): A 4-fold serial dilution with DMSO was set up from the highest to the lowest concentration to generate a total of 9 concentrations, and the internal reference compound was likewise subjected to 4-fold serial dilution to generate another 9 concentrations. Next, the compound working solutions were prepared as follows: 98 µL of cell culture medium was added to each well of a flat-bottomed 96-well transparent plate, and 2 µL of compound was pipetted from the compound storage plate to the cell culture medium in the 96-well plate. 2 µL of DMSO was added to the solvent control well. After the compound or DMSO was added, it was mixed thoroughly by pipetting.
(§4) Cell seeding and drug administration: 1) Cells were stained with trypan blue and live cells were counted, cell viability must be ≥90%; 2) The cell concentration was adjusted to an appropriate level; 3) 95 µL of cell suspension was added to each well of the compound assay plate (6,000-10,000 cells/well), and cell-free medium (containing 0.1% DMSO) was added to the Min control wells; 4) Compound administration in the compound assay plate: 5 µL of a 20× compound stock solution was added to the cell culture plate as shown in Table 1. 5 µL of a DMSO-cell culture medium mixture was added to the Max control well. The final DMSO concentration was 0.1%; 5) The culture plate was incubated in a 37 °C, 5% CO2 incubator for 72-96 hours.
(§5) The assay was performed according to the instructions for the Promega CellTiter-Glo Luminescent Cell Viability Assay Kit (Promega-G7573): 1) CellTiter-Glo buffer was thawed and equilibrated to room temperature; 2) CellTiter-Glo substrate was equilibrated to room temperature; 3) CellTiter-Glo buffer was added to one bottle of CellTiter-Glo substrate to dissolve the substrate, thereby the CellTiter-Glo working solution was prepared; 4) Slow vortex was performed to ensure complete dissolution; 5) The cell culture plate was taken and placed for 10 minutes to be equilibrated to room temperature; 6) 50 µL of CellTiter-Glo working solution (equivalent to half the volume of the cell culture medium in each well) was added to each well; 7) The plate was shaken on a shaking incubator for 2 minutes to induce cell lysis; 8) The plate was placed at room temperature for 10 minutes to stabilize the luminescence signal; 9) The luminescence signal was measured using a SpectraMax Paradigm reader.
(§6) The cell proliferation inhibition rate data is calculated using the following formula: Inhibition Rate (Inh%) = 100−(RLUDrug−RLUMin)/(RLUMax−RLUMin) × 100%. [formula]
(§7) The inhibition rates corresponding to different compound concentrations was calculated in Excel, then GraphPad Prism software was used to plot inhibition rate curves and the relevant parameters were calculated, including the maximum and minimum inhibition rates, IC50 value. Table 36 Results of the inhibitory effects of test compounds on the proliferation of FGFR2 background cell lines

[2] = test system: KATO III; assay: as above; conditions: read-out: IC50 value, inhibition of proliferation, 72-96 hours incubation
Description: as §1, §2, §3, §4, §5, §6, §7

[3] = test system: MFE-296; assay: as above; conditions: read-out: IC50 value, inhibition of proliferation, MFE-296, 72-96 hours incubation
Description: as §1, §2, §3, §4, §5, §6, §7

[4] = test system: MFM223; assay: as above; conditions: read-out: IC50 value, inhibition of proliferation, MFM223, 72-96 hours incubation
Description: as §1, §2, §3, §4, §5, §6, §7

[5] = test system: NCI-H716; assay: as above; conditions: read-out: IC50 value, inhibition of proliferation, NCI-H716, 72-96 hours incubation
Description: as §1, §2, §3, §4, §5, §6, §7

[6] = test system: SNU-16; assay: as above; conditions: read-out: IC50 value, inhibition of proliferation, SNU-16, 72-96 hours incubation
Description: as §1, §2, §3, §4, §5, §6, §7

[7] = test system: SUM52PE; assay: as above; conditions: read-out: IC50 value, inhibition of proliferation, 72-96 hours incubation
Description: as §1, §2, §3, §4, §5, §6, §7

[8] = Solubility in dissolution media at 37 °C (HPLC of supernatant, pH of supernatant, XRPD of residual solid) after 2 h, 8 h and 24 h; conditions: for Solubility: target concentration 2 mg/mL (calculated as free-base form); for Residual solid XRPD: equilibrated for 24 h
Description: 10 mg of the free-base crystal form A of the compound of formula I-1 or 10.8 mg (equivalent to 10 mg of the free-base anhydrous form) of the hydrochloride crystal form I of the compound of formula I-1 was weighed and placed in an 8 mL glass vial. 5 mL of dissolution medium was added. The resulting suspension/clear solution was stirred at 37 °C and 400 rpm for 2 h, 8 h, and 24 h, then the resulting suspension/clear solution was centrifuged at 37 °C and 14,000 rpm for 5 min. The solubility of the supernatant was determined by HPLC, and the pH of the supernatant was measured by a pH meter, and the residual solid was detected by XRPD. Table 34 Solubility testing of the free-base crystal form A of compound of formula I-1

[9] = Solid stability of the hydrochloride crystal form I (XRPD, HPLC, stoichiometric ratio, visual colour) after one week of storage; conditions: for Solid (XRPD) / Purity, Solid (HPLC) / Color: 1 week, Solid; for Purity, Solid (HPLC): initial purity 99.6%; for Color: visual observation
Description: An open container containing the hydrochloride crystal form I of the compound of formula I-1 was placed at 25 °C/60% RH for one week. A sealed container containing the hydrochloride crystal form I of the compound of formula I-1 was placed at 60 °C for one week. Stability samples under these conditions were subjected to XRPD, HPLC, and stoichiometric ratio testing, and visual observation was performed for color changes of the samples. Table 33 Solid Stability of Hydrochloride Crystal Form I of the Compound of Formula I-1

IC50 [5]: 2.4 nM
IC50 [6]: 3 nM
Structure (SMILES): C=C(C)C(=O)Nc1ccc(-c2c(-c3ccc(N=S4(=O)CCCC4)cc3)c3c(N)ncnc3n2C)c(F)c1
IC50 [1]: 9.9 nM
IC50 [2]: 0.8 nM
IC50 [3]: 14.9 nM
IC50 [4]: 1 nM
IC50 [7]: 6.2 nM

Solubility ([8]; FaSSGF, pH 1.6, 37°C, 2 h): 380 µg/mL
pH of the supernatant ([8]; FaSSGF, pH 1.6, 37°C, 24 h): 1.55
Solubility ([8]; FaSSGF, pH 1.6, 37°C, 24 h): 420 µg/mL
Residual solid XRPD ([8]; FaSSGF, pH 1.6, 37°C): Free-base form A
Solubility ([8]; FaSSIF-v1, pH 6.5, 37°C, 2 h): 0.4 µg/mL
pH of the supernatant ([8]; FaSSIF-v1, pH 6.5, 37°C, 24 h): 6.50
Solubility ([8]; FaSSIF-v1, pH 6.5, 37°C, 24 h): 1.1 µg/mL
Residual solid XRPD ([8]; FaSSIF-v1, pH 6.5, 37°C): Free-base form A
Solubility ([8]; FeSSIF-v1, pH 5.0, 37°C, 2 h): 4.5 µg/mL
pH of the supernatant ([8]; FeSSIF-v1, pH 5.0, 37°C, 24 h): 4.97
Solubility ([8]; FeSSIF-v1, pH 5.0, 37°C, 24 h): 6.6 µg/mL
Residual solid XRPD ([8]; FeSSIF-v1, pH 5.0, 37°C): Free-base form A
Solubility ([8]; Water, 37°C, 2 h): 1.2 µg/mL
pH of the supernatant ([8]; Water, 37°C, 24 h): 7.72
Solubility ([8]; Water, 37°C, 24 h): 1.3 µg/mL
Residual solid XRPD ([8]; Water, 37°C): Free-base form A
Structure (SMILES): C=C(C)C(=O)Nc1ccc(-c2c(-c3ccc(N=S4(=O)CCCC4)cc3)c3c(N)ncnc3n2C)c(F)c1 [free-base crystal form A of compound of formula I-1]

Solid (XRPD) ([9]; 25°C/60% RH, open container): Hydrochloride crystal form I (no change)
Purity, Solid (HPLC) ([9]; 25°C/60% RH, open container): 99.5%
Color ([9]; 25°C/60% RH, open container): No color change
Solid (XRPD) ([9]; 60°C, sealed container): Hydrochloride crystal form I (no change)
Purity, Solid (HPLC) ([9]; 60°C, sealed container): 99.6%
Color ([9]; 60°C, sealed container): No color change
pH of the supernatant ([8]; FaSSGF, pH 1.6, 37°C, 24 h): 1.56
pH of the supernatant ([8]; FaSSIF-v1, pH 6.5, 37°C, 24 h): 6.18
Residual solid XRPD ([8]; FaSSIF-v1, pH 6.5, 37°C): Free-base form A
pH of the supernatant ([8]; FeSSIF-v1, pH 5.0, 37°C, 24 h): 4.90
Residual solid XRPD ([8]; FeSSIF-v1, pH 5.0, 37°C): Free-base form A
pH of the supernatant ([8]; Water, 37°C, 24 h): 2.55
Residual solid XRPD ([8]; Water, 37°C): Free-base form A
Structure (SMILES): C=C(C)C(=O)Nc1ccc(-c2c(-c3ccc(N=S4(=O)CCCC4)cc3)c3c(N)ncnc3n2C)c(F)c1 [hydrochloride crystal form I of the compound of Formula I-1]
physical stability (change in total impurities or crystal form) ([9]; 25 °C/60% RH open container, one week, 60 °C sealed container): no change in total impurities or crystal form

Reference: patent EP4834905A1, “CRYSTAL FORM OF ACID SALT OF SULFOXIMINE COMPOUND, PREPARATION METHOD THEREFOR, AND USE THEREOF” (dated 2026)
